Amino acid sequences for entries named in this document (tags omitted). Residues count along the entry.
UniProt P22303, 32-614: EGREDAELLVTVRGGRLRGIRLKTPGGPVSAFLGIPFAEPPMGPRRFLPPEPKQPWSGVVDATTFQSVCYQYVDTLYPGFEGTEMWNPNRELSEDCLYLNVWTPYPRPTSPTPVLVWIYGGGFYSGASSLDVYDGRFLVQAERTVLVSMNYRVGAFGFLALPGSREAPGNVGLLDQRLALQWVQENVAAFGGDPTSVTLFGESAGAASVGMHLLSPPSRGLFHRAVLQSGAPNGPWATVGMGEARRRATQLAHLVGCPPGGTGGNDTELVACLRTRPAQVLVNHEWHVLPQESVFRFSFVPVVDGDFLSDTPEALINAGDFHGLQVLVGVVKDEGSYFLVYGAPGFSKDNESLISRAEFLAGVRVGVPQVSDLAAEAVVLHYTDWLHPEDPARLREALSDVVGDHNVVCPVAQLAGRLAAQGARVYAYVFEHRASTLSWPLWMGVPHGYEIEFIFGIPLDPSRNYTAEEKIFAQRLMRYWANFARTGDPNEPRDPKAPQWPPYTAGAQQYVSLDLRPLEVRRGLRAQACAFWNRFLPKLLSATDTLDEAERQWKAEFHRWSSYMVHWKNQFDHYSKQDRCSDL
UniProt P06276, 29-602: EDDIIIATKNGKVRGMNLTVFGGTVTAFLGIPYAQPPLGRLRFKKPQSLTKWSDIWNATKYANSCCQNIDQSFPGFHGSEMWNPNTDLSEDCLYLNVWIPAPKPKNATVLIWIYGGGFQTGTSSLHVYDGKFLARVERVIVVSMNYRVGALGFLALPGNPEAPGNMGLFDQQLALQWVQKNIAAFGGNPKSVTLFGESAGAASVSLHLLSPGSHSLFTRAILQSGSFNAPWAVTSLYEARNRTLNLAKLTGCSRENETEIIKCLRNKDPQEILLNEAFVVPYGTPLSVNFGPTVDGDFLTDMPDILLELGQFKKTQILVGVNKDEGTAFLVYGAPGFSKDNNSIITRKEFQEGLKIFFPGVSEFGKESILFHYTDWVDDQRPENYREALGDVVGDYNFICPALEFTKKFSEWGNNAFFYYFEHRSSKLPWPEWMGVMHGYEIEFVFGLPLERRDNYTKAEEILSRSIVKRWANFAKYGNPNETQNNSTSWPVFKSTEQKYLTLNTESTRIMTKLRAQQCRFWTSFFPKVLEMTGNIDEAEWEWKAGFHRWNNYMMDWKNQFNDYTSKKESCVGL

According to publication PMC8348983 (International Journal of Molecular Sciences, 2021):

Experiments:
human recombinant AChE = human recombinant AChE (Homo sapiens, UniProt P22303); format: biochemical; details: 100 µM
human plasma BChE = target: T1, human plasma BChE (Homo sapiens, UniProt P06276); format: biochemical; details: 100 µM
T1 construct: was used as a source of BChE and was prepared from heparinized human blood; from tissue; host or cells: human plasma from heparinized human blood

CNC(=O)Oc1ccc2c(c1)[C@]1(C)CCN(C)[C@@H]1N2C [eserine, reference compound]
%Inhibition hAChE ± SEM (human recombinant AChE): 99.8 ± 0.6% | % Inhibition hBuChE ± SEM (human plasma BChE): 99.9 ± 0.5%
